From patent publication US6500927B2 (priority 1998, dated 2002)

Key:
[1] = test system: MOR-1 and the variants MOR-1C, MOR-1D, MOR-1E; conditions: MOR-1 and variants
MOR-1D = target: T1, MOR-1D (Mus musculus, UniProt P42866); type: binding; conditions: among MOR-1, MOR-1C, MOR-1E
T1 construct: The cDNA fragments containing the full length MOR-1 or the MOR-1 variants in pCRII-ToPo were subcloned into pcDNA3.1; expressed in transfected cells

Row | Molecule | Competition for 3H-DAMGO binding (in words) [1] | Affinity of MOR-1D compared with the other clones (MOR-1D)
1 | [D-Pen^2, D-Pen^5]enkephalin [DPDPE] | ineffective | 
2 | β-endorphin: endogenous opioid peptide |  | highest affinity
3 | C[C@@H](NC(=O)[C@@H](N)Cc1ccc(O)cc1)C(=O)NCC(=O)N(C)[C@@H](Cc1ccccc1)C(=O)NCCO [DAMGO, [D-Ala^2, MePhe^4, Gly(ol)^5]enkephalin] | bind competitively | 
